The record followed here is patent US11369613B2, “Salts and solid form of a BTK inhibitor” (PRINCIPIA BIOPHARMA INC., priority 2014, dated 2022).

Where only a bound is given, the exact number is not on record here.

For the series the following is noted: ambient temperature.

With “2-[(3R)-3-[4-amino-3-(2-fluoro-4-phenoxy-phenyl)-pyrazolo[3,4-d]pyrimidin-1-yl]piperidine-1-carbonyl]-4-methyl-4-[4-(oxetan-3-yl)-piperazin-1-yl]pent-2-enenitrile hemisulfate [hemi-sulfate]”, the Solubility in water is recorded as > 100 mg/mL.
